{"sequences": {"note": "Amino acid sequences for entries named in this document (tags omitted).", "UniProt P20272, whole entry": "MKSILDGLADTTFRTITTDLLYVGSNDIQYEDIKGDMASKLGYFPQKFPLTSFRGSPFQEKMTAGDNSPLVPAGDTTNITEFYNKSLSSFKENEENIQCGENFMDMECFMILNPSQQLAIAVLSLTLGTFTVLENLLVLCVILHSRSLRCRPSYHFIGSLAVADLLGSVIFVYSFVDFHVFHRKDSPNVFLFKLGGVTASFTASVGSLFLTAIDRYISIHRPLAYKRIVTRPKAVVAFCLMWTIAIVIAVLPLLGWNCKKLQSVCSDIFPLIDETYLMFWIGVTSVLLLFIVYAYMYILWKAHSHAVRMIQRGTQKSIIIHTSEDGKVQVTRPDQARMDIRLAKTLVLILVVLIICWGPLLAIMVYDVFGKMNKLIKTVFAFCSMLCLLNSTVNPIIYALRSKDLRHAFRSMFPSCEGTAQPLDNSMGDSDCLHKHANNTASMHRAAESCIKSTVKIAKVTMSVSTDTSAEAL"}, "source": "patent US10662475B2", "about": "“Compositions and methods for the treatment and prevention of antipsychotic medication-induced weight gain” (Centre for Addiction and Mental Health, priority 2014, dated 2020)", "key": {"[1]": {"conditions": "total sample N=128, patients treated with clozapine, risperidone, olanzapine or haloperidol"}, "[2]": {"conditions": "total sample, European ancestry subjects with schizophrenia or schizoaffective disorder, by antipsychotic; mean ± SD"}, "[3]": {"target": "cannabinoid receptor type 1 (CB1) (Rattus norvegicus, UniProt P20272)", "conditions": "injection of the CB1 antagonist; cited from earlier work"}}, "data": [{"smiles": "Cc1cc2c(s1)Nc1ccccc1N=C2N1CCN(C)CC1", "note": "[olanzapine]", "values": [{"measurement": "weight gain", "setting": "[1]", "result": "highest weight gain"}, {"measurement": "weight gain (% change from baseline weight)", "setting": "[2]", "result": "10.25%±12.9"}]}, {"smiles": "Cc1c(C(=O)NN2CCCCC2)nn(-c2ccc(Cl)cc2Cl)c1-c1ccc(Cl)cc1", "note": "[rimonabant]", "values": [{"measurement": "feeding induced by intracerebroventricular orexin-A injection", "setting": "[3]", "result": "abolishes feeding"}]}, {"smiles": "Cc1nc2n(c(=O)c1CCN1CCC(c3noc4cc(F)ccc34)CC1)CCCC2", "note": "[risperidone]", "values": [{"measurement": "weight gain (% change from baseline weight)", "setting": "[2]", "result": 0.77, "unit": "%"}]}]}
